# Apparent affinities of Ab-14 variants for a coronavirus HR2 peptide

Values reported by Li et al. 2023, doi:10.1038/s41467-023-39022-2 (FLAb copy).

Target: peptide PDVDLGDISGINAS, taken from heptad repeat 2 (HR2) of SARS-CoV-2 spike.

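Phage display of a naive human antibody library on the peptide gave the parent. The variants were designed computationally from a first round of random CDR variants and then made and measured. Several design methods are mixed in this list. The scFvs were displayed on barcoded MATa yeast, the peptide on MATalpha yeast. After mating in shaken culture at 30 °C for 16 h, diploids were selected and their barcode pairs sequenced. Read counts were normalised to the haploid input and turned into Kd by a linear fit to BCL2-family pairs of known affinity, for each replicate. The assay was run in six technical replicates.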

Parent scFv Ab-14: VH joined to VL by a 15-residue (Gly4Ser)3 linker. Changes lie in the light chain CDRs alone.
VH: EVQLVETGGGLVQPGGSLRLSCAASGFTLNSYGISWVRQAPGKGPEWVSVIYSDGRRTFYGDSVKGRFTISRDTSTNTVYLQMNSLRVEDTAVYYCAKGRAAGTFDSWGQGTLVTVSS
VL: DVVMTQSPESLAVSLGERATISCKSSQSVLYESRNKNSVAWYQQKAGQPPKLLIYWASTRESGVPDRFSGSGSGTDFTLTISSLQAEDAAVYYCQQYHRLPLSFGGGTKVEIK

Variants are written as CDR1, CDR2 and CDR3 of the light chain (limits as in the source). Parent: KSSQSVLYESRNKNSVA, WASTRES, QQYHRLPLS.
The read-out is the apparent dissociation constant on a log10 scale (nM): the lower, the stronger.
A mean of the replicates is given; it leaves out those without a signal.
Where no diploid with the target was found in any replicate, the entry reads "no signal": below detection, most likely a poor binder, though not proof of it.

CDR-L1,CDR-L2,CDR-L3,mean log10 Kd (nM),seen in
KLSATYRFETQNKNNIA,EMTTRES,QCYHRLPLS,1.73,6/6
KLHQSWLYESRNINSVA,NASQRCS,QQYHRLPLS,-0.08,6/6
KSSQSFLYESRNVNNVA,GASTRES,QQYHRLPLS,-0.65,6/6
KVEQSQLYESRNKNSVA,NASTRES,QQYHRLPLS,0.43,6/6
KVSEFMRGLMQKTDSIA,DNVTRGN,QQYDRLPLS,1.39,6/6
KSSISALYESRNENSVA,EASTREQ,QQYHRLPLS,1.11,6/6
KVPQSVLYESRNKNSVA,EASTRES,QQYHRLPLS,0.09,6/6
KISGMSNHQSSVHNNVA,ENVTRVE,QQYFRLPLS,0.27,6/6
SFSQSVLYEGRTKNSVA,NASTRES,QQYHRLPLS,0.12,6/6
HISYSMAHLSKNKNSVA,NQQTRES,QQYHRLPLS,0.98,6/6
KLQQSELGESRNMNSVA,HASTRES,QQYHRLPLS,0.90,6/6
HISMMVGTKGYNKNSVA,NAETRQD,QQYHRLPLS,1.89,6/6
KSSISELYESRNKNSVA,EASTRES,QQYHRLPLM,-0.03,6/6
KLSASELYESAAKNSVA,NAMQRMS,QQYHRLPLS,-0.20,6/6
KVDQSELYESRNKNSVA,EASTRES,QQYHRLPLS,0.20,6/6
KLMQSVLYESRNKNSVA,NASTRED,QQYHRLPLS,-0.05,6/6
KLPQQWLYESRNKNSVA,SASTREE,QQYHRLPLS,-0.38,6/6
KISQAYLYEDRNKNSVA,NANQRES,QQYHRLPLS,-0.22,6/6
KLSQSVRMEQFNKNSVA,ENSTREA,QDYHRLPLS,2.64,5/6
KSSQSVLYESYNKNSVA,DASIRES,QQYHRLPLS,0.50,6/6
NVGQYMDGESRNKNSVA,HQSTRED,QHYHRLPLS,1.51,5/6
NMHNMCYQYENYGNSIA,HANMREN,QQYSRLPFT,0.64,6/6
QFSITNNQGHSMEHNIA,EGTYAEE,QQYARLPLQ,1.35,5/6
RLSNHVYDRQGIQHSVA,QDAERAV,QSYDRLPLS,1.85,6/6
KSSESVLYESRNKNNVA,WASTRES,QQYHRLPLS,0.26,1/6
KLMQEDEYQSRMKNSVA,HASLRES,QQYHRLPLS,0.26,6/6
QIYQAMHTLSQVKDNVA,DVNERGS,QQYYRLPLS,1.60,5/6
KLIQSVAMSSRNKDNIA,DNSTREY,QQYHRLPLS,1.10,6/6
KLQQSELYEERMSNSVA,SASLRES,QQYHRLPLS,0.84,6/6
KISFNTLIESKNLNSVA,EMTTREY,QDYDRLPLS,1.11,4/6
KLQQSMLYMDRNANNVA,NASTRMS,QQYHRLPLS,-0.53,6/6
KSSQSVAMESRNANSVA,DASTRES,QQYHRLPLS,1.43,1/6
VFQQQWDGVTLTNSAVA,NVDERME,QQYNRLPLM,0.52,6/6
HSSPSVLYESRNGNSVA,NASTREA,QQYHRLPLS,0.48,6/6
HLSDSVLYESRNKNSVA,NASTRES,QQYHRLPLI,0.04,6/6
NITGMVEEKGTTTKNIA,EAEFRCG,QQYSRLPLS,1.05,6/6
KLSQSMLYESRNKNSVA,NASTRMQ,QQYHRLPLS,-0.35,6/6
ALQMETLGQKQKQNNIA,NQQMRTA,QQYYMLPLS,0.44,6/6
HIGLATMSEETVRNSVA,NNSTRES,QQYDRLPLS,2.08,6/6
KISQLVLYESRNKNSVA,NANTRES,QQYHRLPLS,0.17,6/6
KSSQSVLYESRNKNWVA,EASFRES,QQYHRLPLS,1.55,6/6
KIGGVTNGMSRSKNSVA,EQSTRED,QQYNRLPLS,0.57,6/6
KVSEMMAFLSRNRNSVA,DNSTRGS,QQYHRLPLS,0.74,6/6
KLSMSVLFESRNKNSVA,NASTREQ,QQYHRLPLS,-0.11,6/6
HSSPSSLYESRNKNSVA,NASTRES,QQYHRLPLS,-0.39,6/6
TIGQTLMTGVRNRSNVA,EVSERLN,QQYDRLPLF,1.12,6/6
KLPQSVLYESRNKNSVA,NASTREM,QQYHRLPLS,-0.53,6/6
HLSQSQLYESRNKNSVA,NASTRLH,QQYHRLPLS,0.05,6/6
TISQGTYWESRNKNSVA,QTSTREE,QDYDRLPLS,no signal,0/6
KLQQQNLYESRNKNNVA,EASTREQ,QQYHRLPLS,-0.42,6/6
KLSQSYLYESRNFNSVA,NASTRES,QQYHRLPLS,-0.21,6/6
SVQYFPEESLRHASAIA,DVNIKVM,QQYSRLPLA,0.21,6/6
KVSQSDLYESRNKNSVA,EASTRES,QDYHRLPLS,0.42,6/6
KSSQPVLYESRNKNSVA,WASTRLS,QQYHRLPLS,1.77,3/6
KFSQSVLYESRTSNSVA,NGSTRES,QQYHRLPLS,-0.04,6/6
KESQSVLQESVNKNSVA,DASTRES,QQYHRLPLS,0.08,6/6
KSSWSVLYESNNKNSVA,HASQRED,QQYHRLPLS,0.18,6/6
KLSQKWLYESRNKNNVA,NASWREQ,QQYHRLPLS,-0.39,6/6
KLSQSHLYESRMKNSVA,NASTRLS,QQYHRLPLS,0.34,6/6
KISQSVLYESRNKNSVA,KASTREN,QQYHRLPLS,-0.11,6/6
KLYQSTAMTSRKKNNVA,DLNERER,QQYFRLPLS,0.28,6/6
KLSQSWLYESRNKNSVA,NASERES,QQYHRLPLS,-0.28,6/6
KSSQSVLYESCNKNSVA,WASTREL,QQYHRLPLS,2.65,1/6
KVQQSWLYESRNKNSVA,NASQRLS,QQYHRLPLS,0.65,6/6
TISGVMQTVSHSKNNVA,EMTTREK,QQYVRLPLA,0.01,6/6
LISGVWDYGSRNYNSVA,QTSTRED,QQYDRLPLS,0.78,6/6
KISSMTLYESVNKNNIA,EMSTRPS,QSYHRLPLS,1.27,6/6
RLLYQDLAQTGKLNSVA,DATITQQ,QQYHQLPLM,0.84,6/6
KVSQSVPYESRNKNSVA,WASTRER,QQYHRLPTS,2.75,6/6

Extract of 4 entries:

CDR-L1,CDR-L2,CDR-L3,mean log10 Kd (nM),seen in
KSSQSVLYESCNKNSVA,WASTREL,QQYHRLPLS,2.65,1/6
KVSEMMAFLSRNRNSVA,DNSTRGS,QQYHRLPLS,0.74,6/6
KSSISALYESRNENSVA,EASTREQ,QQYHRLPLS,1.11,6/6
QIYQAMHTLSQVKDNVA,DVNERGS,QQYYRLPLS,1.60,5/6

Nonspecific signal, from three strains lacking the peptide, appeared in 4% of pairings of all light chain designs, centred on 2.64 (5% of these signals below 1.59); values are not corrected for it.
Values of this round are not directly comparable with the first-round values of the same sequences.
The authors averaged sequences with at least three values out of six and counted those with two or fewer as poor binders.